{"sequences": {"note": "The chains behind the UniProt entries cited, without tags or fusion partners. Where a name states a change or a piece, a line headed by the entry shows the natural chain unless it says otherwise.", "UniProt O42275": "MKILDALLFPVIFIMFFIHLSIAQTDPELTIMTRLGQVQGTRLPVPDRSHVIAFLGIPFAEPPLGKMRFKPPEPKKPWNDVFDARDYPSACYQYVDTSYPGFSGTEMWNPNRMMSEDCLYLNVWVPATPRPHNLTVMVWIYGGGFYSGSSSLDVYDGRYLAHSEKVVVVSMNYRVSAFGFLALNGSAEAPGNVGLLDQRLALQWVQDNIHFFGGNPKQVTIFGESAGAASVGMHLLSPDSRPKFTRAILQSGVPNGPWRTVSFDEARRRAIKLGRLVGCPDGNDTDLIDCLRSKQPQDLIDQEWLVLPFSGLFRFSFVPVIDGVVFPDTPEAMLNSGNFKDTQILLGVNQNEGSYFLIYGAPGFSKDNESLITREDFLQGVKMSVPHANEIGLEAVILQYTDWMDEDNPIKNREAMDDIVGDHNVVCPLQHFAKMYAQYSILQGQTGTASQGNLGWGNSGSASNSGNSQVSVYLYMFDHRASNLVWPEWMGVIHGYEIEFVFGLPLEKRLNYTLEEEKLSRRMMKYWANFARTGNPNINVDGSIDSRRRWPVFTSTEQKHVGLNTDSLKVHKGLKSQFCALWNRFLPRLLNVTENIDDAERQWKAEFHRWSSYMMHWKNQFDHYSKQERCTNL"}, "source": "ChEMBL document CHEMBL4229384", "about": "“Success stories of natural product-based hybrid molecules for multi-factorial diseases” (Eur J Med Chem, 2018)", "biological_target": "Acetylcholinesterase (Electrophorus electricus, UniProt O42275)", "test": "Inhibition of electric eel AChE", "data": [{"smiles": "COc1ccc2c3c1O[C@H]1C[C@@H](O)C=C[C@]31CC[N+](CCCCCCCCN1C(=O)c3ccccc3C1=O)=C2", "values": [{"measurement": "IC50", "value": 10, "unit": "nM"}]}]}
